The target of this experiment is SP-A binding protein on type II cell membranes (SP-A receptor) of rat alveolar epithelial type II cells (rat).

Substance “SP-A purified from rat lung surfactant (from UniProt P08427) (ligand)” yielded a % Lung Surfactant Secretion in 2 hours (% Lung Surfactant Secretion in 2 hours) of 0.9.

Source of the values: patent publication US6051224, “Compositions and methods for targeting cells and modulating pulmonary surfactant secretion” (Thomas Jefferson University, dated 2000).
